For this assay, the target named is T1, CIC-1 channels (Rattus norvegicus, UniProt P35524).
T1 construct: Gm was measured in individual fibres of whole rat soleus muscles; from tissue; host or cells: soleus muscle of adult (12-14 week old) Wistar rats
T1 sequence (P35524 1-994): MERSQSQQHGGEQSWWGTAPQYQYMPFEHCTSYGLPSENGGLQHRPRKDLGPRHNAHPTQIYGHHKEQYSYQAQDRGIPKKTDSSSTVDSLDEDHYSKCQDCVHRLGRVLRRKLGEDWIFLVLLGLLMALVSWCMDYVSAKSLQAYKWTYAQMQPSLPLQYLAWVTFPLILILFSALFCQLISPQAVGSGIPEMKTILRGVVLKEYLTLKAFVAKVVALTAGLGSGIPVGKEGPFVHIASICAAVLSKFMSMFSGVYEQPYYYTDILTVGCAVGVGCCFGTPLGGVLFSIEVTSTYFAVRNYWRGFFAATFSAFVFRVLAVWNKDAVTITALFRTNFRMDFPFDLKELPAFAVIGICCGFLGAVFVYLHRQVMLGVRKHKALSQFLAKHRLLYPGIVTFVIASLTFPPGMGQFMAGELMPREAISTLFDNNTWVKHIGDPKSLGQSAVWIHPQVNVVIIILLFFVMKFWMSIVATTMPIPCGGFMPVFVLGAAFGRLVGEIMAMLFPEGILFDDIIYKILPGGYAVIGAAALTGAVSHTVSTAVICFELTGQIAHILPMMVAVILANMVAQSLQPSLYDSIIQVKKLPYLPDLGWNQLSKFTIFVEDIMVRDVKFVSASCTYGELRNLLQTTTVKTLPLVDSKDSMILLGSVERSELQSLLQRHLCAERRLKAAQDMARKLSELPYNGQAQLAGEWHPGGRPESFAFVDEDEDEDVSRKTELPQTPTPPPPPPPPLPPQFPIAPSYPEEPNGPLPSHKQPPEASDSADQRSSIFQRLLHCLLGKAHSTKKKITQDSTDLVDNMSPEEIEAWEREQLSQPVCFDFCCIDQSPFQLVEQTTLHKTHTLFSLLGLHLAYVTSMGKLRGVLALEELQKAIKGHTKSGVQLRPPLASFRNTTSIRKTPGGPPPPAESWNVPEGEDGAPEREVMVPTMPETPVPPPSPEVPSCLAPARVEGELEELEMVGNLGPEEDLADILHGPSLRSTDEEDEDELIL
As to the kind of experiment: Electrophysiological measurement of compound inhibition of CIC-1 in rat muscle (Gm, EC50). The assay is classed as cell-based. The settings on record: rat soleus muscle fibres, three micro-electrode Gm measurement; read-out: EC50 (inhibition of ClC-1 ion channel, Gm).

The term EC50 denotes the midpoint of the concentration-response curve. Turning to `[2H]c1cc(Br)cc([2H])c1O[C@@H](C)C(=O)O` [Compound A-6, (2S)-2-[4-bromo(2,6-^2H2)phenoxy]propanoic acid], the EC50 was determined as 7.4 ± 1.4 µM.

The values above are taken from patent US11730714B2, “Compounds for the treatment of neuromuscular disorders” (NMD PHARMA A/S, priority 2017, dated 2023).
